We go through 3 compounds from patent US7655396B1, “Methods for detecting receptor modulator activity” (Allergan, Inc., priority 2006, dated 2010).

Sequences of proteins named here, by UniProt entry; tags and fusion partners are left off.
UniProt P30545, whole entry: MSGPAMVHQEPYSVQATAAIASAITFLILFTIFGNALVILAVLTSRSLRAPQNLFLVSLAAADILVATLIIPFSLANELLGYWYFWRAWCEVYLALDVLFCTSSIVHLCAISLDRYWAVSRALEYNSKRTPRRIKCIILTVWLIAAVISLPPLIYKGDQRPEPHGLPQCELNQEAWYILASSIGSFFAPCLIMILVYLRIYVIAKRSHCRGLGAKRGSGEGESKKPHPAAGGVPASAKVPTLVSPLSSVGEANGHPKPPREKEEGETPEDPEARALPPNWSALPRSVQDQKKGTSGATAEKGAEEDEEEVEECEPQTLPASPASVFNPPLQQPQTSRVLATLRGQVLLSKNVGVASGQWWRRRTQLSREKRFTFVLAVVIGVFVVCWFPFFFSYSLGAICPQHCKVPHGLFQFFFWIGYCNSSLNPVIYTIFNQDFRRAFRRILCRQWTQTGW

Entries after “also recorded” stand apart in the source; their conditions may differ.

The experiment has as its target T1, mouse alpha 2B receptor (m α2B) (Mus musculus, UniProt P30545).
T1 construct: expressed in transfected cells
Description: FLIPR calcium flux assay in HEK 293 m α2B/Gqi5 cells (Fluo-4 dye). Conditions: for activity (ratio of peak height divided by background fluorescence): FIGS. 3A-3C, 1 to 10^4 nM, FLIPR buffer without HEPES, commercial screening company. In kind it is cell-based. An excerpt:
This example describes the methodology used in assaying compounds for the ability to modulate the α2B receptor in a high throughput assay format in which the “readout” is the measurement of a change in intracellular calcium flux due to the use of the “promiscuous” Gqi5 hybrid G-protein, linking the α2B receptor (normally coupled to the adenylyl cyclase pathway) to the PLC pathway. Changes in intracellular calcium flux are monitored using a dye that becomes fluorescent when it binds free Ca^++ ion.
HEK 293 cells are stably co-transfected with two plasmids, the first encoding the mouse alpha 2B receptor (m α2B), and the second encoding the hybrid Gqi5 protein. […] The nucleotide sequence encoding the human Gqi5 protein is contained in the reference Aiyar et al., Human AT1 receptor is a single copy gene: characterization in a stable cell line. Mol. Cell. […] These references are hereby all incorporated by reference herein. […]
Each well of cells (in a 96 well microtiter dish) is assayed for activity in the FLIPR assay using the Fluo-4® calcium indicator dye to detect calcium flux. The structure of this dye, which can be purchased from Molecular Probes, Inc., is as follows:
The cells are loaded with this dye using the manufacturer's recommendations, and washed 3× with FLIPR Buffer. Assays are conducted at room temperature (unless otherwise indicated in the following examples). […] Only cells releasing Ca++ into the cytosol of the cells (thereby permitting Ca++ binding to the Fluo-4 dye) will have increased fluorescent emission at 520 nm.
Images of the illuminated cells are captured with a charge-coupled device (CCD) camera; CCD technology is adapted for producing high-resolution images in conditions of ultra low light. Images are collected at the rate of 60 images/minute (1 image per second) in each well. After 10 seconds, 50 μl of the test compound is pipetted into the well, and further images are collected at 1 second intervals for an additional 60 seconds, then at 15 second intervals for 4 minutes. Test compounds are prepared from 10^-2 M stocks in DMSO. Compounds are diluted in the FLIPR buffer to a final DMSO concentration of about 1%.
All images are stored on a computer hard drive for later retrieval and analysis.

[1] abbreviates: FIG. 1, assay carried out at 35° C., 96 well.
Setting [2] is: FIG. 2, second experiment, 35° C., 96 well.
Setting [3] is: FIG. 2, second experiment, 35° C., norepinephrine standard.

By EC50 is commonly meant the midpoint of the concentration-response curve. `Clc1cccc(Cl)c1N=C1NCCN1` [Clonidine]: the EC50 is, setting by setting: (32° C., FIG. 4B) 46 nM; (35° C., FIG. 4C) 74 nM; (37° C., FIG. 4D) 13 nM; under setting [1], 24 nM; under setting [2], 33 nM; (Room Temp., FIG. 4A) 120 nM. For the same compound, the relative efficacy was found to be 25% (32° C., FIG. 4B); 40% (35° C., FIG. 4C); 32% (37° C., FIG. 4D); 26% under setting [3]; 5% (Room Temp., FIG. 4A). In addition, the “relative efficacy compared to a norepinephrine standard” value under setting [1] is on record as 29%. The “activity (ratio of peak height divided by background fluorescence)” value (room temperature, 384 well) was “shows no activity; also recorded: do not show activity to any significant degree”.
With Brimonidine, the EC50 reads like this: (32° C., FIG. 4B) 36 nM; (35° C., FIG. 4C) 38 nM; (37° C., FIG. 4D) 16 nM; under setting [1], 43 nM; under setting [2], 55 nM; (Room Temp., FIG. 4A) 78 nM. The relative efficacy (32° C., FIG. 4B) came to 52%; the relative efficacy (35° C., FIG. 4C) turned out to be 63%; the relative efficacy (37° C., FIG. 4D) was found to be 53%; the relative efficacy under setting [3] worked out at 70%; the relative efficacy (Room Temp., FIG. 4A) is listed as 63%. Further, the “relative efficacy compared to a norepinephrine standard” value under setting [1] was determined as 59%. Besides, for the setting “FIG. 3C, room temperature, 384 well”, the “maximum ratio over background” value was “about 2.5”.
On to prazosin, for which the “activity (ratio of peak height divided by background fluorescence)” value (room temperature, 384 well) was “only norepinephrine shows activity above background”.
